Measurements taken from Sander's compilation of Henry's law constants (doi:10.1021/je3010535).

Experiment: Henry solubility constant Hcp at 298.15 K (mol/(m3 Pa))
Settings: reference: Hiatt (2013)

SMILES | Henry solubility constant Hcp
CCl [chloromethane] | 0.00079
c1ccc2cccc-2cc1 [azulene] | 0.15
